We go through one compound from US20060062842A1, “Method of administering a compound to multi-drug resistant cells” (Alza Corporation, priority 1998, published 2006).

The data set relates to M109R-HiFR cells. Put plainly: Cellular and nuclear doxorubicin quantitation. As to conditions: 1 to 4 hours exposure of tumor cells.

Turning to `COc1cccc2c1C(=O)c1c(O)c3c(c(O)c1C2=O)C[C@@](O)(C(=O)CO)C[C@@H]3O[C@H]1C[C@H](N)[C@H](O)[C@H](C)O1` [Free Doxorubicin, doxorubicin], the “metabolites detected in cells” value was “no significant amounts of metabolites were detected”.
